Literature values in US12455270B2, “Mesh for dissolution test” (Shionogi & Co., Ltd., priority 2019, dated 2025).

Settings: input parameter of GastroPlus simulation

k21: 0.337 h⁻¹
SMILES: NC(=O)N1c2ccccc2C=Cc2ccccc21 [Carbamazepine]
